{
  "source": "ChEMBL document CHEMBL5537191",
  "about": "“Rebamipide and Derivatives are Potent, Selective Inhibitors of Histidine Phosphatase Activity of the Suppressor of T Cell Receptor Signaling Proteins” (J Med Chem, 2024)",
  "note": "Activity calls are given as the source filed them. The rule behind the calls is not given here.",
  "data": [
    {"target": "Ubiquitin-associated and SH3 domain-containing protein B (Homo sapiens) (UniProt Q8TF42)", "test": "Inhibition of human STS-1 HP domain (369 to 636 residues) phosphatase activity expressed in Escherichia coli BL21 (DE3) using pNPP as substrate preincubated for 20 mins followed by substrate addition by absorbance based spectrophotometric analysis", "values": [
      {"molecule": "O=C(NC(Cc1cc(=O)[nH]c2ccccc12)C(=O)O)c1ccc(F)cc1", "note": "(centres undefined)", "inhibition": "Active"},
      {"molecule": "O=C(O)c1ccccc1C(=O)NC(Cc1cc(=O)[nH]c2ccccc12)C(=O)O", "note": "(centres undefined)", "inhibition": "Active"},
      {"molecule": "COC(=O)C(Cc1cc(=O)[nH]c2ccccc12)NC(=O)c1ccc(C)cc1", "note": "(centres undefined)", "inhibition": "inactive"},
      {"molecule": "O=C(NC(Cc1cc(=O)[nH]c2ccccc12)C(=O)O)c1ccc(Cl)c([N+](=O)[O-])c1", "note": "(centres undefined)", "inhibition": "Active"},
      {"molecule": "O=C(NC(Cc1cc(=O)[nH]c2ccccc12)C(=O)O)c1cccc(C(F)(F)F)c1", "note": "(centres undefined)", "inhibition": "Active"},
      {"molecule": "COc1ccc(C(=O)NC(Cc2cc(=O)[nH]c3ccccc23)C(=O)O)cc1", "note": "(centres undefined)", "inhibition": "Active"},
      {"molecule": "O=C(NC(Cc1c[nH]c2ccccc12)C(=O)O)c1ccc(Cl)cc1", "note": "(centres undefined)", "inhibition": "inactive"},
      {"molecule": "O=C(NC(Cc1cc(=O)[nH]c2ccccc12)C(=O)NO)c1ccccc1", "note": "(centres undefined)", "inhibition": "inactive"},
      {"molecule": "O=C(Nc1ccc(Cl)cc1)NC(Cc1cc(=O)[nH]c2ccccc12)C(=O)O", "note": "(centres undefined)", "inhibition": "inactive"},
      {"molecule": "Cc1ccc(C(=O)NC(Cc2cc(=O)[nH]c3ccccc23)C(=O)O)cc1", "note": "(centres undefined)", "inhibition": "Active"},
      {"molecule": "CCc1ccc(C(=O)NC(Cc2cc(=O)[nH]c3ccccc23)C(=O)O)cc1", "note": "(centres undefined)", "inhibition": "Active"},
      {"molecule": "Cc1ccc(C(=O)N[C@H](CSCc2cc(=O)[nH]c3ccccc23)C(=O)O)cc1", "inhibition": "inactive"},
      {"molecule": "O=C(NC(Cc1cc(=O)[nH]c2ccccc12)C(=O)O)c1ccc(F)c(F)c1", "note": "(centres undefined)", "inhibition": "Active"},
      {"molecule": "CCCCc1ccc(C(=O)NC(Cc2cc(=O)[nH]c3ccccc23)C(=O)O)cc1", "note": "(centres undefined)", "inhibition": "Active"},
      {"molecule": "CCCCCCc1ccc(C(=O)NC(Cc2cc(=O)[nH]c3ccccc23)C(=O)O)cc1", "note": "(centres undefined)", "inhibition": "Active"},
      {"molecule": "O=C(NC(Cc1cc(=O)[nH]c2ccccc12)C(=O)O)c1ccccc1Cl", "note": "(centres undefined)", "inhibition": "Active"},
      {"molecule": "O=C(NC(Cc1cc(=O)[nH]c2ccccc12)C(=O)O)c1ccc(Cl)c(Cl)c1", "note": "(centres undefined)", "inhibition": "Active"},
      {"molecule": "O=C(NC(Cc1cc(=O)[nH]c2ccccc12)C(=O)O)c1ccc(OC(F)(F)F)cc1", "note": "(centres undefined)", "inhibition": "Active"},
      {"molecule": "O=C(NC(Cc1cccc2ccccc12)C(=O)O)c1ccc(Cl)cc1", "note": "(centres undefined)", "inhibition": "inactive"},
      {"molecule": "O=C(Nc1cc(Cl)cc(Cl)c1)NC(Cc1cc(=O)[nH]c2ccccc12)C(=O)O", "note": "(centres undefined)", "inhibition": "inactive"},
      {"molecule": "N#Cc1ccc(C(=O)NC(Cc2cc(=O)[nH]c3ccccc23)C(=O)O)cc1", "note": "(centres undefined)", "inhibition": "Active"},
      {"molecule": "O=C(COc1ccc(Cl)cc1)NC(Cc1cc(=O)[nH]c2ccccc12)C(=O)O", "note": "(centres undefined)", "inhibition": "inactive"},
      {"molecule": "O=C(NC(Cc1cc(=O)[nH]c2ccccc12)C(=O)O)c1cccc(Cl)c1", "note": "(centres undefined)", "inhibition": "Active"},
      {"molecule": "O=C(NC(Cc1cc(=O)[nH]c2ccccc12)C(=O)O)c1ccc(Oc2ccc(C(=O)NC(Cc3cc(=O)[nH]c4ccccc34)C(=O)O)cc2)cc1", "note": "(centres undefined)", "inhibition": "Active"}
    ]}
  ]
}
